In US9732367B2, “Cell lines” (MEDIMMUNE LIMITED, priority 2012, dated 2017):

Key:
PC3 = test: In vitro cytotoxicity assay, PC3; type: cell-based
SKOV3 = test: In vitro cytotoxicity assay, SKOV3; type: cell-based, human

Substance | cytotoxic activity in words (PC3) | EC50 PC3 (PC3; Table 5, positional 4D5-AF ADCs) | cytotoxic activity in words (SKOV3)
Herceptin | no cytotoxic effect | DNC | –
Herceptin-CUAAC-AF ADC | did not show cytotoxicity at the examined concentrations | – | –
Herceptin-SPAAC-AF ADC | did not show cytotoxicity at the examined concentrations | – | efficiently killed by the ADC
